Measured values: US7087246B2, “Controlled release preparation of insulin and its method” (Mi Tech Company Limited, priority 2000, dated 2006)

Conditions: 0.1 N acetic solution (pH 2.0)

insulin
insulin dissolved up to (solubility): approximately 254 IU/0.3 ml
